In ChEMBL document CHEMBL1795255, “Discovery and optimization of potent and selective benzonaphthyridinone analogs as small molecule mTOR inhibitors with improved mouse microsome stability” (Bioorg Med Chem Lett, 2011) one finds IC50 and EC50 data, which are given here for one compound.

Sequences of proteins named here, by UniProt entry; tags and fusion partners are left off. A change or cut given only in a name is not applied to a line headed by its entry.
UniProt P48736: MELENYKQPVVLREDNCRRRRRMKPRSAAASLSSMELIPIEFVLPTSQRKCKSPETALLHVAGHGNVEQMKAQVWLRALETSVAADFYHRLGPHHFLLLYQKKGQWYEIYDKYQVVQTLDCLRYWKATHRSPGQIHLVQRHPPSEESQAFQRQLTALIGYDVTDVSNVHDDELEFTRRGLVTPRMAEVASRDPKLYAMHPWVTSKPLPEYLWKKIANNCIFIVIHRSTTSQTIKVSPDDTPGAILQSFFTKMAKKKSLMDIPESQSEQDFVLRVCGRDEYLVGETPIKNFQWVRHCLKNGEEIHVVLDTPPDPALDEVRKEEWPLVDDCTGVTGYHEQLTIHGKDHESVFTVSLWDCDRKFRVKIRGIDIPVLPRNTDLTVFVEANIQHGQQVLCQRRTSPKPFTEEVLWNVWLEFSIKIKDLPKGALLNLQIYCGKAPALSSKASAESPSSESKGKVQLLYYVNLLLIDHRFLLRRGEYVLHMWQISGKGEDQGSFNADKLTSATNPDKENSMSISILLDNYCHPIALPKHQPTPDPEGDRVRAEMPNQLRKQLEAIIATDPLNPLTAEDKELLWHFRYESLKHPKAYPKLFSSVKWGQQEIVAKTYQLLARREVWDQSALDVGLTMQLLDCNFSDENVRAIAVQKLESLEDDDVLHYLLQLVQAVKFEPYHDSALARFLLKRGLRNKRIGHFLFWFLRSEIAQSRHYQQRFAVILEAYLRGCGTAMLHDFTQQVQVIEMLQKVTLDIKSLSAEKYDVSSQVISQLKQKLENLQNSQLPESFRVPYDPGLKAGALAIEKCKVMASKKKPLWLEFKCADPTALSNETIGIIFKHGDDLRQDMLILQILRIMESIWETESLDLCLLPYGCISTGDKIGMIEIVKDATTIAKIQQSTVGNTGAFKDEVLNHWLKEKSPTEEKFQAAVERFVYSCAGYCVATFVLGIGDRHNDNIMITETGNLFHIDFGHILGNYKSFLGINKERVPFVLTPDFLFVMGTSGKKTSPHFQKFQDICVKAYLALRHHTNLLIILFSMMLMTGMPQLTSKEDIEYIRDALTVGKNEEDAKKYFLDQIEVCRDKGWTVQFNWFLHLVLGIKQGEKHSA
UniProt O00329: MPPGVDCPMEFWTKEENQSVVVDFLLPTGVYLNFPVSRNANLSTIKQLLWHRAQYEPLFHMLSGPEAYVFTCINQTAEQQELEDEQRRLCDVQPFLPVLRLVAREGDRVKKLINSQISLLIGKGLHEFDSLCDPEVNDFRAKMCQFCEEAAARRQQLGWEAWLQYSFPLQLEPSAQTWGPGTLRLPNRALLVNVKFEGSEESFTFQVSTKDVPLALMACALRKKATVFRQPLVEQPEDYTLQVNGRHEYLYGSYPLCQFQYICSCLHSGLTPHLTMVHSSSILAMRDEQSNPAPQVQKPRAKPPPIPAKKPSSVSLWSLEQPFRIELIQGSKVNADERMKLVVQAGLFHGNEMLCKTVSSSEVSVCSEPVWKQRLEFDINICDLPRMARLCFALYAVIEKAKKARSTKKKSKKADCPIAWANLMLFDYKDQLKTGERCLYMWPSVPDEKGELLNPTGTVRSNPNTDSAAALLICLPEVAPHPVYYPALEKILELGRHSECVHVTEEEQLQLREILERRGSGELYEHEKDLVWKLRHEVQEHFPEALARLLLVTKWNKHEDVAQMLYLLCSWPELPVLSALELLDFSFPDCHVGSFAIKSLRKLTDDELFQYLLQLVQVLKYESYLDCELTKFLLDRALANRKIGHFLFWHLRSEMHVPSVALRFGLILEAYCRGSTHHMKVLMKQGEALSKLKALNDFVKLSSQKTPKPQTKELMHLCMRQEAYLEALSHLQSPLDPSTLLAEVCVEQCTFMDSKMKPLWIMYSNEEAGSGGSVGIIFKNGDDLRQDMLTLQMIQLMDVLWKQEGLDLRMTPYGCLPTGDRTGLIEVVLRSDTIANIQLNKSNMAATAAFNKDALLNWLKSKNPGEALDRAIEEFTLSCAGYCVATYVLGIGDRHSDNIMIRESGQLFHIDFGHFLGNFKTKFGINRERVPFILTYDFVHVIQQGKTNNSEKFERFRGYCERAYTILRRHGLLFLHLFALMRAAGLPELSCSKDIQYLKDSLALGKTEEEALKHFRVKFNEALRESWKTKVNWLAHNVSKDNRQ

Molecules are shown by their SMILES.

For assay [1], the target named is Phosphatidylinositol 4,5-bisphosphate 3-kinase catalytic subunit gamma isoform (Homo sapiens, UniProt P48736). In words: Inhibition of P110gamma.
In assay [2] the target is PI3-kinase p110-delta/p85-alpha (Homo sapiens, UniProt O00329). The experiment in a line: Inhibition of P110delta/p85alpha. Format: protein-complex assay.
Assay [3] can be described thus: Inhibition of PI3K-dependent Akt phosphorylation at T308 residue in human PC3 cells. The class given is cell-based. The settings on record: PC-3.

With `CN1CCC(NC(=O)c2ccc(-c3ccc(-n4c(=O)ccc5cnc6ccc(-c7cnc8ccccc8c7)cc6c54)cc3C(F)(F)F)cc2)CC1`, the 50% inhibitory concentration (IC50) in assay [1] and in assay [2] was 1170 nM each time. In addition, in assay [3], the concentration giving a half-maximal response (EC50) worked out at 1000 nM.
